Source: PubChem BioAssay AID624352 (Sanford-Burnham Center for Chemical Genomics, 2012)
This is a selection; strong and weak results do not stand in their true shares. Calls of active or inactive are those of the source.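 The calls were made as follows: active = inhibition of the luminescence signal of 40% or more relative to plate controls, in a single-dose primary screen at 18.75 µM; inactive = the rest.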

experiment: blockers of HIF-2a driven luciferase – luminescence, 786-0 RCC cells, primary screen (AID 624352); details: 786-0 RCC cells HIF-2a reporter, overnight, at 18.8 µM, hits give high values

Row | Structure (SMILES) | inhibition
1 | CCC(=O)N(c1ccccc1)C1(COC)CCN(CCn2nnn(CC)c2=O)CC1 | inactive: 12.1%
2 | CCC(=O)N(c1ccccc1)C1(COC)CCN(CCc2cccs2)CC1 | inactive: 4.79%
